Tests used:
[1] = Fecal excretion study in rats after oral NS, SF or CNS (LC–MS/MS); assay type: in vivo; conditions: rat feces
Method: (§1) The animal room was set at constant temperature of 20 ± 2 °C with humidity of 50 ± 20% and 12/12 h light/dark cycle.
(§2) Eighteen male rats were fasted for 12 h before starting the experiment. The rats were divided into three groups at random (n = 6) and received NS (60 mg/kg), SF (50 mg/kg), and NS (60 mg/kg) + SF (50 mg/kg), respectively, by oral gavage. The rats were placed in separate metabolic cages. The urine samples were collected at 0–2, 2–4, 4–6, 6–8, 8–12, 12–24, 24–36, 36–48, 48–72, 72–96, and 96–120 h. The feces samples were collected at 0–4, 4–8, 8–12, 12–24, 24–36, 36–48, 48–72, 72–96, and 96–120 h. The urine volume was recorded and the dry feces were measured for each collection period. Samples were stored at −80 °C until analysis.
Feces samples were homogenized in ultrapure water (1 g/15 mL), soaked for 30 min, ultrasonically extracted for 30 min and centrifuged at 9000 rpm for 8 min. An aliquot of 200 μL feces water extraction solution was mixed with 10 μL of IS and then extracted three times with water-saturated n-BuOH (150 μL). The upper organic phase was combined and evaporated to dryness using a ZLS-2 vacuum centrifugal concentrator. The residue was treated as the urine sample and a 1-μL aliquot was injected for LC–MS analysis.
(§3) Ultra fast liquid chromatography (UFLC) analysis was performed using a Shimadzu UFLC system (DGU-20A3R Degasser; LC-20AD pump; SIL-20AXR Autosampler; CTO-20AC Column Oven) (Nakagyo-Ku, Koyoto, Japan). […] Because of the different endogenous substances in the urine and feces samples, different elution gradients were used to alleviate the matrix effects for the analytes.
(§4) The mass spectrometric detection was performed on an ABSciex 4500 Qtrap mass spectrometer (ABSciex, Foster City, CA, USA) equipped with a negative electrospray ionization (ESI) interface using multiple reaction monitoring (MRM). The MS parameters were optimized under the selected ion monitoring conditions as follows: curtain gas, 35 psi; ionspray voltage, 4500 V; turbo gas temperature, 450 °C; GS1, 45 psi; GS2, 45 psi. All data were acquired and analyzed by Analyst software (Versions 1.6.2) from ABSciex.
(§5) The accumulative excretion percentage was calculated for each analyte as follows. Excretion at time (t) = [concentration of the analyte (ng/mL) at t] × total urine (or feces) volume (mL) at t. The cumulative excretion up to time t (mg) was expressed as a percent (%) cumulative excretion by dividing by the total amount of the analyte ingested (mg): % Cumulative Excretion = 100 × (Σt excretiont) total ingested.

[2] = Urinary excretion study in rats after oral NS, SF or CNS (LC–MS/MS); assay type: in vivo; conditions: rat urine; for Accumulative excretion amount / Accumulative excretion percentage: oral NS 60 mg/kg
Method: as §1, §2
An aliquot of 200 μL urine sample was mixed with 10 μL of IS and evaporated to dryness with a ZLS-2 vacuum centrifugal concentrator (Herexi Co., Ltd., Changsha, Hunan, China). The residue was reconstituted in 100 μL of 50% methanol vortexed for 2 min and centrifuged at 12,000 rpm for 15 min. Finally, a 1 μL aliquot was injected for LC–MS analysis.
as §3, §4, §5

## CC(C)=CCC[C@](C)(O[C@@H]1O[C@H](CO[C@@H]2O[C@H](CO)[C@@H](O)[C@H](O)[C@H]2O)[C@@H](O)[C@H](O)[C@H]1O)[C@H]1CC[C@]2(C)[C@@H]1[C@H](O)C[C@@H]1[C@@]3(C)CC[C@H](O[C@@H]4O[C@H](CO)[C@@H](O)[C@H](O)[C@H]4O[C@@H]4O[C@H](CO)[C@@H](O)[C@H](O)[C@H]4O)C(C)(C)[C@@H]3CC[C@]12C [ginsenoside Rb1]
[1]; oral NS 60 mg/kg, 48 h
  Accumulative excretion percentage: 2.692±0.846%

## CC(C)=CCC[C@](C)(O[C@@H]1O[C@H](CO)[C@@H](O)[C@H](O)[C@H]1O)[C@H]1CC[C@]2(C)[C@@H]1[C@H](O)C[C@@H]1[C@@]3(C)CC[C@H](O[C@@H]4O[C@H](CO)[C@@H](O)[C@H](O)[C@H]4O[C@@H]4O[C@H](CO)[C@@H](O)[C@H](O)[C@H]4O)C(C)(C)[C@@H]3CC[C@]12C [ginsenoside Rd]
[1]; oral NS 60 mg/kg, 36 h
  Accumulative excretion percentage: 5.174±1.612%

## CC(C)=CCC[C@](C)(O[C@@H]1O[C@H](CO)[C@@H](O)[C@H](O)[C@H]1O)[C@H]1CC[C@]2(C)[C@@H]1[C@H](O)C[C@@H]1[C@@]3(C)CC[C@H](O)C(C)(C)[C@@H]3[C@@H](O[C@@H]3O[C@H](CO)[C@@H](O)[C@H](O)[C@H]3O[C@@H]3O[C@@H](C)[C@H](O)[C@@H](O)[C@H]3O)C[C@]12C [ginsenoside Re]
[2]; oral CNS 110 mg/kg, 2 h
  Excretion amount: 0.133 ± 0.062 µg
[1]; oral CNS 110 mg/kg, 72 h
  Accumulative excretion amount: 28.467 ± 7.628 µg

## CC(C)=CCC[C@](C)(O[C@@H]1O[C@H](CO)[C@@H](O)[C@H](O)[C@H]1O)[C@H]1CC[C@]2(C)[C@@H]1[C@H](O)C[C@@H]1[C@@]3(C)CC[C@H](O)C(C)(C)[C@@H]3[C@@H](O[C@@H]3O[C@H](CO)[C@@H](O)[C@H](O)[C@H]3O)C[C@]12C [ginsenoside Rg1]
[2]; 96 h
  Accumulative excretion amount: 16.480 ± 7.192 µg
  Accumulative excretion percentage: 0.473±0.208%
[2]; 120 h
  Accumulative excretion amount: 16.542 ± 7.264 µg
  Accumulative excretion percentage: 0.473±0.211%
[1]; oral CNS 110 mg/kg, 12 h
  Accumulative excretion percentage: 1.864±0.675%
[1]; oral NS 60 mg/kg, 96 h
  Accumulative excretion amount: 133.700 ± 39.733 µg
[1]; oral NS 60 mg/kg, 120 h
  Accumulative excretion amount: 134.015 ± 39.837 µg

— article PMC6321168, “Comparative Study on Excretive Characterization of Main Components in Herb Pair Notoginseng-Safflower and Single Herbs by LC–MS/MS” (Pharmaceutics, 2018)
